Earlier results in PMC11284800 (Journal of Medicinal Chemistry, 2024).

System: CB1R
Parameters: method as in PMID 8070571, PMID 27240274, PMID 24175572
Settings: cited from earlier work

For `Cc1c(C(=O)NN2CCCCC2)nn(-c2ccc(Cl)cc2Cl)c1-c1ccc(Cl)cc1` [Compound 6, Rimonabant], the “Functional profile at CB1R (in words)” value is listed as “inverse agonist”.
